For this assay, the target named is PI3K-alpha (Homo sapiens, UniProt P42336). As to the kind of experiment: PI3K-alpha fluorescence polarization assay. In kind it is biochemical. The settings on record: read-out: PI3Kα Avg. IC50. In general terms: Polarisation of emitted light reports the rotation of a fluorescent probe.

By UniProt entry, the sequences of proteins in these tests, tags left out.
UniProt P42336, whole entry, species assumed: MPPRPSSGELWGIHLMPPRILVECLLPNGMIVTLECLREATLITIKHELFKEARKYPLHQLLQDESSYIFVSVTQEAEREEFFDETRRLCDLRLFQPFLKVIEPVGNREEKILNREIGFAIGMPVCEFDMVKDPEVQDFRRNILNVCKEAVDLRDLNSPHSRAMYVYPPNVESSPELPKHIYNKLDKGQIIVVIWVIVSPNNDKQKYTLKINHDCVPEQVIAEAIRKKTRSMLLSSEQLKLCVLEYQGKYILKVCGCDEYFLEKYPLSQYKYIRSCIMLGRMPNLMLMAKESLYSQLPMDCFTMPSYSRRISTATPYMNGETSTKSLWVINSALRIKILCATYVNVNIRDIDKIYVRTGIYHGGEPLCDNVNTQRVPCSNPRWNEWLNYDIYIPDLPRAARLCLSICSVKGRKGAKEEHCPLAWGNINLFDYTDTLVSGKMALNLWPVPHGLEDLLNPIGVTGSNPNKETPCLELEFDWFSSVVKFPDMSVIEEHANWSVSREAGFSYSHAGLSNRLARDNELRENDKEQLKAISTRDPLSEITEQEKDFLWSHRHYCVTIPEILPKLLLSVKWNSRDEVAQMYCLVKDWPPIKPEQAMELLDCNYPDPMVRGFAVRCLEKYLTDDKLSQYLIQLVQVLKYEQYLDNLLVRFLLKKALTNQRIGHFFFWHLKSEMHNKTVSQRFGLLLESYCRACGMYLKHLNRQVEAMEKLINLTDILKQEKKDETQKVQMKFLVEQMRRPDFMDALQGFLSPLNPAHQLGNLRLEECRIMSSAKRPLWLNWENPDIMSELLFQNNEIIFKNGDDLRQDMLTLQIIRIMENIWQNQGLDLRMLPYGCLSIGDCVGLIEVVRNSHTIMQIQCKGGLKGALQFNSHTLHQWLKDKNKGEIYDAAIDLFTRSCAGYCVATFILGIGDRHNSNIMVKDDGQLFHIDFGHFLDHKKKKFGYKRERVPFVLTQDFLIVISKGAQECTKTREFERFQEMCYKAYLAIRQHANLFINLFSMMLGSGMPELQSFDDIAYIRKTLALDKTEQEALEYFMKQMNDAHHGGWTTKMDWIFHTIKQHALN

This note sets out measurements from US20090311217A1, “3-SUBSTITUTED-1H-INDOLE COMPOUNDS, THEIR USE AS MTOR KINASE AND PI3 KINASE INHIBITORS, AND THEIR SYNTHESES” (priority 2008, published 2009).

Structures are written as SMILES.

The IC50 is the point on the concentration scale where inhibition reaches its midpoint.

On to `COc1ccc2[nH]c(-c3ccccc3)c(C=C3Oc4cc(O)cc(O)c4C3=O)c2c1` [Example 70, 4,6-dihydroxy-2-[(5-methoxy-2-phenyl-1H-indol-3-yl)methylene]-1-benzofuran-3(2H)-one], for which the IC50 amounted to 3.2 nM.
